From patent publication US9181310B2 (priority 2003, dated 2015)
Values joined by “and” are separate entries in the source; they are usually repeats but may differ in a detail not shown here. Identical values can stand only once.

What was measured:
[1] = tested on: E. coli BL21 DE3 cells
[2] = tested on: E. coli strain ADA410 P3rpoH::lacZ reporter (damage to the bacterial outer membrane); assay: P3rpoH::lacZ reporter, purified protein added to ADA410 cells, beta-galactosidase activity; conditions: 10 micrograms purified protein, 25 degrees, 2 hours
[3] = tested on: E. coli ER2566; assay type: cell-based
[4] = tested on: citrus (Citrus sinensis x Poncirus trifoliata) cv. Carizzo; assay: Stable transformation of citrus, effect on the plant; conditions: stable transformation with pIPG786

COc1ccc2cc3[n+](cc2c1OC)CCc1cc2c(cc1-3)OCO2 [berberine, 5,6-dihydro-9,10-dimethoxybenzo-1,3-benzodioxoloquino-lizimium, reference compound] was tested, and the “effect of berberine on BL21 DE3 cells carrying the pET vector alone” value [1] was “little effect”.

B1: D2: BombBC deletion, aa 77-169 of BC, SEQ ID 7 (protein)
chain: MTEAQKADGIEWLKRHPVGADALIEELQNLPVATAEESAAFEQVRASARGQNAKTAEGEVAQAGGGNRRKKKEKPAEAGEVQNPPAADGDSLLS
modifications: mutant D2 predicted amino acid sequence
B1 was tested, and the “damage to the bacterial outer membrane by externally applied protein (beta-galactosidase activity)” value [2] was “full BC activity”, the “damage to the bacterial outer membrane by externally applied protein (beta-galactosidase activity)” value ([2]; listed as BC-D2) was “equally efficacious” and the “bacterial stasis induced by expression” value ([3]; berberine chloride 250 ug/ml, 0.25 mM IPTG, 20 hrs of induction) was “clearly induced”. For the same molecule, the “activity of expression clone (growth in presence of berberine chloride)” value ([3]; berberine chloride (5 micrograms/ml), 20 h after induction) was “Active”.

B2: BombBC: Bacteriophage Outer Membrane Breaching protein of Xanthomonas phage P15 (Xp15) ORF BC, 17.9 kD, SEQ ID NO. 17 (protein, listed as Xanthomonas campestris)
chain: MSDQTDTTQTTPAEKAPPKEIIRGRMPIAVVALARFGSQSTTTTKAAADALGTTVGKIDDIRKNRNFAYVTADFKPTEAQKADGIEWLKRHPVGADALIEELQNLPVATAEESAAFEQVRASARGQNAKTAEGEVAQAGGGNRRKKKEKPAEAGEVQNPPAADGDSLLS
B2 was tested, and the “detrimental effect on citrus plants” value [4] was “not detrimental”, the “cell debris in the culture” value [1] was “no evidence of cell debris” and the “effect of induced expression on the culture (lysis / quasilysis)” value [1] was “quasilysis”. The “optical density (OD) at 600 nm, 0 hr PI” value [1] was 0.5, the “optical density (OD) at 600 nm, 3 hr PI” value [1] was 0.8 and 0.6 and the “optical density (OD) at 600 nm, 18 hr PI” value [1] was 0.7 and 0.5. For the same molecule, the “optical density (OD) at 600 nm, 24 hr PI” value [1] was 0.6 and 0.4.
